The values that follow come from patent publication US7442841B2, “Extraction process” (Invista North America S.A R.L., priority 2006, dated 2008).

Data set [1] is described as follows: Liquid-liquid separation of cyclohexanol from cyclohexane, distribution coefficient by gas chromatography. Type of data set: physicochemical. The following applies: extracting solvent/cyclohexane; equal volumes. The protocol: The distribution coefficient for the separation was then calculated.
The nature of data set [2]: Liquid-liquid separation of cyclohexanone from cyclohexane, distribution coefficient by gas chromatography. Conditions: extracting solvent/cyclohexane; equal volumes.

On to `CCCCn1cc[n+](C)c1` [Example 3], for which, in data set [1], the “Cyclohexanol Log D” value worked out at 0.24. In addition, in data set [2], the “Cyclohexanone Log D” value amounted to 0.32.
With `CCCCn1cc[n+](C)c1` [Example 4], the “Cyclohexanol Log D” value in data set [1] stood at 0.36. For the same molecule, in data set [2], the “Cyclohexanone Log D” value is reported as 0.18.
With `CCCCn1cc[n+](C)c1` [Example 6], in data set [1], the “Cyclohexanol Log D” value is reported as 0.61. Also, in data set [2], the “Cyclohexanone Log D” value is 0.64.
